Patent US9188584B2, “Capture agents and related compositions, methods and systems” (CALIFORNIA INSTITUTE OF TECHNOLOGY, priority 2008, dated 2015)

The chains behind the UniProt entries cited, without tags or fusion partners.
UniProt P00921, whole entry: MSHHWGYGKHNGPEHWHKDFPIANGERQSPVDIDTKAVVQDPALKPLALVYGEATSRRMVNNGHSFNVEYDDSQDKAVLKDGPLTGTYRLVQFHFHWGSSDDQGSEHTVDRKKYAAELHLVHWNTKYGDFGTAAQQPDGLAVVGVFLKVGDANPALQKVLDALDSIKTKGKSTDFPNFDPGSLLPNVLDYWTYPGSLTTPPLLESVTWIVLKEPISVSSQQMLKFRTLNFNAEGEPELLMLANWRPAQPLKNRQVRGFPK

Molecular target: T1, bCAII (Bos taurus, UniProt P00921)
T1 construct: The bCAII (C2522), from bovine erythrocytes, lyophilized powder; purchased Sigma-Aldrich C2522; host or cells: bovine erythrocytes
Assay: KD determination by surface plasmon resonance (SPR), immobilized bCAII
Parameters: species or system bovine
Details: biligand 2 nM to 5 μM, 1:1 binding fit; read-out: KD / binding affinity to bCAII by SPR
Description: KD determination by surface plasmon resonance (SPR).

Kd: 3 µM
SMILES: CC(=O)NC(CCCCn1cc(C[C@@H](NC(=O)[C@@H](CC(C)C)NC(=O)CNC(=O)[C@@H](Cc2c[nH]c3ccccc23)NC(=O)[C@@H](CC(C)C)NC(=O)[C@@H](Cc2c[nH]c3ccccc23)NC(=O)[C@H](N)CCCCN)C(=O)N2CCCCC2)nn1)C(=O)N[C@H](CCCCN)C(=O)N[C@H](Cc1ccccc1)C(=O)N[C@H](Cc1c[nH]c2ccccc12)C(=O)N[C@H](CC(C)C)C(=O)N[C@H](CCCCN)C(=O)N[C@H](CC(C)C)C(=O)O (stereo partly shown) [kwlwGl-Tz1-kfwlkl]
